Test system: Serratia marcescens (−)
Settings: 2% lysine citrate

## NCCCC[C@H](N)C(=O)O.O=C(O)CC(O)(CC(=O)O)C(=O)O [Lysine Citrate, lysine citrate]
  growth of Serratia marcescens: prevented from growing
